Structures can show the parent of a compound that is named as a salt.

For assay [1], the system named is liver regeneration after partial hepatectomy. As to the kind of experiment: Liver regeneration after 70% partial hepatectomy, BrdU labeling index. Type of assay: in vivo, Sprague-Dawley rats. As to conditions: 70% hepatectomy; crude extract 1 ml/rat or EA-HCl 10 mg/rat. (In general: Incorporation of labelled thymidine or its analogues reports DNA synthesis.)
Assay [2] relates to hepatic cirrhosis induced by N-nitrosodiethylamine. As to the kind of experiment: Effect on hepatic cirrhosis (2), hepatocirrhosis induced by N-nitrosodiethylamine. In kind it is in vivo, Sprague-Dawley rats.

With `NCCO` [EA-HC1, monoethanolamine-HCl], in assay [1], the “significance (Student's t-test) of BrdU labeling index” value is recorded as “** (P < 0.01 (Student's ttest))”.

In the case of `NCCO` [ethanolamine, monoethanolamine], the “prevention of hepatic cirrhosis induced by N-nitrosodiethylamine” value in assay [2] (oral administration) is “can be prevented”. Also, in assay [2] (oral, 15 mg/kg), the “formation of nodules, difference from N-nitrosodiethylamine group (Dunnet's test)” value is “statistically significant”. Besides, in assay [2] (oral, 50 mg/kg), the “amount of hydroxyproline, difference from N-nitrosodiethylamine group (t-test)” value is recorded as “statistically significant” and the “formation of nodules, difference from N-nitrosodiethylamine group (Dunnet's test)” value is “statistically significant”. Besides, in assay [2] (oral, 15 and 50 mg/kg), the “amount of hydroxyproline in liver, dose dependence” value is given as “the higher the dose of ethanolamine, the lower the amount of hydroxyproline” and the “formation of nodules on liver surface, dose dependence” value is given as “the higher the dose of ethanolamine, the less significant the formation of nodules”.

The values are drawn from US5916924A, “Remedies for liver diseases” (Meiji Milk Products Co., Ltd., priority 1997, dated 1999).
